# Source: patent publication US20250332198A1, “TARGETED ELIMINATION OF SENESCENT CELLS BY GAMMA-DELTA T CELLS” (SENS RESEARCH FOUNDATION, priority 2022, published 2025)
# Tested on: human PBMC
# Test: Enrichment of γδT cells from human PBMC, flow analysis after 10 days of expansion
# Format: cell-based
# Details: PBMC treated 24 hours, then IL-2 for 10 days
# Protocol: The γδT cells were isolated and enriched from human blood as described in a published protocol using zoledronate and interleukin-2 (see, e.g., Kondo, M. et al. Expansion of human peripheral blood gamma delta T cells using zoledronate. J Vis Exp). The blood samples were obtained from healthy donors (n=5, age range 20-42) in heparin coated vacutainers. All subjects provided informed written consent. […] Blood samples were diluted with 1× PBS (Corning; Cat #21-031-CV) and combined with Lymphocyte Separation Medium (Corning; Cat #25-072-CI) followed by density gradient centrifugation, according to the manufacturer's instructions. The aliquot of PBMC was analyzed for the proportion of the γδ T cells by flow cytometry. […]
# Cells were resuspended in 100 μl of PBS. […] Cell viability was determined by Propidium iodide (PI) staining and live cells were gated for downstream analysis. Data were analyzed using Flowlogic software (Miltenyi Biotech, Germany).
# The γδT cells were isolated and enriched from human blood using previously published protocol (Kondo et al, Cytotherapy 10, 842-856, 2008). […] The aliquot of PBMC was analyzed for the proportion of the γδT cells by flow cytometry. […]
# Cells were resuspended in 100 μl of PBS. […] Cell viability was determined by PI staining and live cells were gated for downstream analysis. Data were analyzed using Flowlogic™ software. […]
substance,measurement,value
"IL-2: recombinant human interleukin-2, control culture without zoledronate",γδ TCR and CD3-expressing T cells,less than 10%
